Results taken from patent US6350913B1, “3-alkoxybenzylamine derivatives and their use as medicines for treating schizophrenia” (Pierre Fabre Medicament, priority 1998, dated 2002).

Experiment: Cataleptogenic power (propensity to induce extrapyramidal side effects)
Conditions: rat, in vivo, ip; rats, i.p. administration; read-out: Catalepsy ED50

Cc1nc2n(c(=O)c1CCN1CCC(c3noc4cc(F)ccc34)CC1)CCCC2 [Risperidone, reference compound]
ED50: 4.6 mg/kg
